Measured values taken from PubChem BioAssay (Tox21).
Values joined by “and” are separate entries in the source; they are usually repeats but may differ in a detail not shown here. Identical values can stand only once. The entries are a selection whose mix differs from that of the whole data set. Records with an inconclusive call do not appear. Active and inactive are the calls of the source. Unless noted, calls follow the shape of the dose curve; as a rule, active = well fitted curve in the direction sought with a large enough effect in the repeat runs; inconclusive = weak or mixed curves; inactive = no such curve, though single readings can be large; an effect the other way counts as inactive or inconclusive.

Chains of the proteins cited; added tags and fusions are not shown.
UniProt P11511, whole entry: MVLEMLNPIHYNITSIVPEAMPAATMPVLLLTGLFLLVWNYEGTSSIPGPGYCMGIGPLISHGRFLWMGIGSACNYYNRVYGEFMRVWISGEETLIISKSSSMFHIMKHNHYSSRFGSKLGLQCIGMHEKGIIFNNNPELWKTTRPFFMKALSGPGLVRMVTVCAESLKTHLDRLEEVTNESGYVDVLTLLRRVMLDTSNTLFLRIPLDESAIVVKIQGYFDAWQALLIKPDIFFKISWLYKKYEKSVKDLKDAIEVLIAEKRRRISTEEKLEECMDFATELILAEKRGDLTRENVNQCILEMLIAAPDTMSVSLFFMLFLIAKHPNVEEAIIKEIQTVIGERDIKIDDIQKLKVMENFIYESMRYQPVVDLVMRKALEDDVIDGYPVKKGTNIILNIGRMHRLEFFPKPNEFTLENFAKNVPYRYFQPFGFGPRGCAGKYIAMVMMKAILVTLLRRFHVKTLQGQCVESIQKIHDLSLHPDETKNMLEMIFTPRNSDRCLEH

Tests used:
[1] = qHTS assay for small molecules that induce genotoxicity in human embryonic kidney cells expressing luciferase-tagged ATAD5 (AID 651632); conditions: HEK293T ATAD5-luciferase induction, 16 h; also: nearly all actives have a fitted effect of over 15% in size
Summary of the method: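 Increased luciferase signal from ATAD5-tagged reporter cells indicates DNA-damage-driven ATAD5 induction. HEK293T cells are treated for 16 hr at 37C before detection with Amplite.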

[2] = qHTS assay for small molecule agonists of the p53 signaling pathway - cell viability (AID 651633; calls by dose curve; also: nearly all actives have a fitted effect of over 30% in size); conditions: p53RE-bla HCT-116 viability, ATP luminescence, 16 h
Summary of the method: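 Viability counter-read: CellTiter-Glo luminescence (30 min, room temperature) in the same p53RE-bla plates. These plates had been exposed to compounds for 16 h at 37 C.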

[3] = qHTS assay for small molecules that induce genotoxicity in human embryonic kidney cells expressing luciferase-tagged ATAD5 - cell viability (AID 651634; calls by dose curve; also: nearly all actives have a fitted effect of over 25% in size); conditions: HEK293T ATAD5-luc cells viability, CellTiter-Fluor, 15.5 h
Summary of the method: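 Cytotoxicity counterscreen in HEK293T cells bearing an ATAD5-luciferase reporter: live-cell protease activity measured by CellTiter-Fluor fluorescence after 15.5 hr compound exposure.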

[4] = qHTS assay for small molecule disruptors of the mitochondrial membrane potential (AID 720635); conditions: HepG2 mitochondrial membrane potential, Mito-MPS dye ratio
Summary of the method: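 Mitochondrial membrane potential tracked with Mito-MPS dye, red aggregates (ex 540/em 590 nm) against green monomers (ex 490/em 535 nm). Compound treatment 1 hr at 37C, dye 30 min in HepG2.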

[5] = qHTS assay for identifying genotoxic compounds that show differential cytotoxicity against isogenic chicken DT40 cell lines with known DNA damage response pathways - wild type cell line (AID 743012); conditions: DT40 wild type chicken cells viability, CellTiter-Glo, 40 h; also: nearly all actives have a fitted effect of over 60% in size
Summary of the method: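 Cells (DT40 wild type, 300/well) are treated with DMSO-dissolved compounds after a ~0.5 h pre-incubation and kept 40 h at 37 C/5% CO2. Viability is then measured by CellTiter-Glo luminescence following 30 min at room temperature.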

[6] = qHTS assay for identifying genotoxic compounds that show differential cytotoxicity against isogenic chicken DT40 cell lines with known DNA damage response pathways - Rad54/Ku70 mutant cell line (AID 743015); conditions: DT40 Rad54/Ku70 mutant viability, CellTiter-Glo, 40 h; also: nearly all actives have a fitted effect of over 60% in size
[7] = qHTS assay to identify small molecule antagonists of the androgen receptor (AR) signaling pathway using the MDA cell line - cell viability counter screen (AID 743041; also: nearly all actives have a fitted effect of over 45% in size); conditions: MDA-kb2 viability, CellTiter-Fluor, 16 h; cells co-treated with R1881 androgen agonist
Summary of the method: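 R1881-driven MDA-kb2 AR-luc cells, 3,000/well, were dosed with library compounds for 16 h; cell health came from CellTiter-Fluor fluorescence in the reporter wells.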

[8] = qHTS assay to identify small molecule antagonists of the thyroid receptor (TR) signaling pathway - cell viability counter screen (AID 743064); conditions: GH3.TRE-Luc viability, CellTiter-Fluor, 24 h; also: nearly all actives have a fitted effect of over 50% in size
Summary of the method: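 In-well cytotoxicity read by CellTiter-Fluor (30 min, 37 C) following 23.5 h exposure of GH3 cells bearing a TRE-luciferase sensor. Compounds were added alongside 1 nM (final) T3 to drive TR transactivation.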

[9] = qHTS assay to identify small molecule antagonists of the thyroid receptor (TR) signaling pathway (AID 743065); conditions: GH3.TRE-Luc, T3-stimulated luciferase inhibition, 23.5 h; also: nearly all actives have a fitted effect of over 55% in size
Summary of the method: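 Antagonism measured as loss of luciferase signal in GH3 cells stably carrying a TRE-luciferase reporter, co-treated with compound and T3 (1 nM final) for 23.5 h at 37 C. Viability was read in the same well by CellTiter-Fluor.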

[10] = qHTS assay to identify small molecule antagonists of the estrogen receptor alpha (ER-alpha) signaling pathway using the BG1 cell line (AID 743080; calls by dose curve;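 also: BG1 cells stimulated with 17beta-estradiol alongside compound; nearly all actives have a fitted effect of over 25% in size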); conditions: BG1Luc4E2 ERE-luciferase antagonist mode, luminescence
Summary of the method: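 Seeding, 24 h rest, compound transfer from DMSO, 17beta-estradiol addition, 21.5 h incubation, CellTiter-Fluor (30 min, 37 C), then ONE-Glo (30 min, room temperature): this sequence was run on BG1-Luc-4E2 reporter cells.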

Aromatase (Homo sapiens) = Aromatase (Homo sapiens) (UniProt P11511); assay: qHTS assay to identify aromatase inhibitors (AID 743083); conditions: MCF-7 aro ERE, testosterone-driven ERE luciferase, 24 h; also: nearly all actives have a fitted effect of over 55% in size
[11] = qHTS assay to identify aromatase inhibitors - cell viability counter screen (AID 743084); conditions: MCF-7 aro ERE viability, CellTiter-Fluor, 24 h; series mostly up to 70.3 µM;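 also: cells stimulated with testosterone during compound exposure; nearly all actives have a fitted effect of over 55% in size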
[12] = qHTS assay to identify small molecule that activate the aryl hydrocarbon receptor (AhR) signaling pathway - cell viability counter screen (AID 743086); conditions: HepG2-AhR-luc viability, CellTiter-Fluor, 24 h; also: nearly all actives have a fitted effect of over 45% in size
Summary of the method: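 Cytotoxicity counter screen: CellTiter-Fluor signal (30 min, 37 C) in 4000 HepG2 cells/well carrying the DRE-luciferase reporter, following 24 h compound exposure at 37 C.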

[13] = qHTS assay for small molecule agonists of the antioxidant response element (ARE) signaling pathway (AID 743202; active = well fitted activation curve with a large enough effect in the signal ratio in the repeat runs, not every such curve was filed as active; the % refers to the signal ratio); conditions: HepG2 ARE-bla reporter, beta-lactamase FRET, 16 h
Summary of the method: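 An ARE-responsive beta-lactamase gene stably integrated in HepG2 cells serves as reporter. After 5 h plating and 16 h compound incubation at 37 C, fluorescence of the B/G FRET substrate was measured.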

[14] = qHTS assay for small molecule agonists of the antioxidant response element (ARE) signaling pathway - cell viability counter screen (AID 743203; calls by dose curve; also: nearly all actives have a fitted effect of over 55% in size); conditions: ARE-bla HepG2 viability, CellTiter-Glo luminescence, 16 h
Summary of the method: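 Seeded at 2,000 cells/well, ARE-bla HepG2 cells were incubated 5 hrs before compound addition. After 16 hrs of treatment at 37C with 5% CO2, CellTiter-Glo reagent was added and luminescence read 30 min later.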

[15] = qHTS assay for small molecule activators of the heat shock response signaling pathway - cell viability counter screen (AID 743209); conditions: HSE-bla HeLa viability, CellTiter-Glo luminescence, 5 h; also: nearly all actives have a fitted effect of over 50% in size
Summary of the method: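 First, HSE-bla HeLa cells were seeded at 1500 cells/well and kept overnight at 37 C. Next, compounds were pinned in and incubated 5 h. After the FRET substrate step, CellTiter-Glo was added and luminescence read 30 min later.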

[16] = qHTS assay to identify small molecule agonists of the peroxisome proliferator-activated receptor delta (PPARd) signaling pathway - cell viability counter screen (AID 743211); conditions: PPARd-bla HEK293H viability, CellTiter-Glo luminescence, 17 h; also: nearly all actives have a fitted effect of over 55% in size
Summary of the method: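 Viability was measured as CellTiter-Glo luminescence (30 min, room temperature) in the same wells as the beta-lactamase readout. GeneBLAzer PPARd UAS-bla HEK293H cells received compound after 5 h plating and were incubated 17 h at 37 C.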

[17] = qHTS assay to identify small molecule agonists of the farnesoid-X-receptor (FXR) signaling pathway - cell viability counter screen (AID 743218); conditions: FXR-bla HEK293T viability, CellTiter-Glo luminescence, 16 h; also: nearly all actives have a fitted effect of over 45% in size
Summary of the method: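 Cytotoxicity counter-screen run in parallel, same wells: FXR-UAS-bla HEK 293T cells dosed 16 h at 37 C, viability read by CellTiter-Glo luminescence after 30 min at room temperature.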

Measured: Potency
Potency is read from the fitted curve at half-maximal effect.

CN(CCCl)CCCl
active: [1] 29.8 µM and 12.2 µM | [2] 29.8 µM | [3] 48.5 µM | [4] 2.43 µM | [5] 13.3 µM | [6] 11.9 µM and 12.2 µM | [7] 54.4 µM | [8] 13.3 µM and 12.2 µM | [9] 10.6 µM | [10] 26.6 µM | Aromatase (Homo sapiens) 12.2 µM | [11] 26.6 µM | [12] 30.6 µM | [13] 9.67 µM and 13.3 µM | [14] 43.2 µM | [15] 21.1 µM | [16] 43.6 µM | [17] 54.8 µM
